Measured values from patent publication US20140234252A1, “Composition and Methods for the Treatment of Degenerative Retinal Conditions” (The Provost, Fellows, Foundation Scholars, and the other …, priority 2011, published 2014).

Legend:
[1] = system: human PBMC; experiment: IL-1β ELISA in human PBMC primed with CEP-HSA or HSA and activated with ATP; assay type: cell-based; settings: PBMCs primed with increasing concentrations (50 and 100 μg/ml), activated with ATP
Experimental: (§1) FIG. 2: CEP, a component of Drusen can prime the NLRP3 inflammasome: (a) Production of IL-1β in Human PBMC primed with LPS, CEP-adducted albumin (CEP-HSA) or HSA in increasing doses (50 and 100 μg ml^−1) and subsequently treated with 5 mM ATP. (b) IL-1β production in WT and Nlrp3^-/- BMDMs primed with CEP-HSA and then activated with either ATP or Poly(dAdT). (c, d) IL-1β and IL-6 production in WT or Tlr2^-/- BMDMs primed with HSA or CEP-HSA, activated with ATP or left un-treated. (e,f) IL-1β and TNFα production were measured in C3H/HeN BMDMs (WT) or C3H/HeJ BMDMs (which contain a mutant TLR4) primed with either LPS or CEP and activated with ATP. (g) Live cell imaging of immortalised BL6 BMDMs stably expressing YFP-ASC. Cells were primed for 3 h with CEP-HSA (top panel) or HSA (bottom panel) followed by treatment with 250 ng/ml Drusen for a further 2 hrs. Oligomerisation of ASC-YFP was observed by speck formation, original magnification ×60. All ELISA data are representative of a minimum of 3 separate experiments carried out in triplicate.
ELISA's were used to quantify cytokines in supernatants from the various experimental groups used throughout this study. IL-1β (RnD Systems), IL-18 (MBL International), IL-6 (RnD Systems), TNF-α (RnD Systems) and VEGF (RnD Systems) were analyzed throughout. All ELISA's were conducted a minimum of 3 times in triplicate. […]

[2] = system: BMDMs; experiment: Cytokine ELISA in BMDMs primed with CEP-HSA or HSA and activated with ATP; assay type: cell-based, mouse; settings: for IL-1β induction: WT versus TLR2-/- BMDMs primed; for IL-1β induction / IL-1β production: activated with ATP
Experimental: as §1
ELISA's were used to quantify cytokines in supernatants from the various experimental groups used throughout this study. IL-1β (RnD Systems), IL-18 (MBL International), IL-6 (RnD Systems), TNF-α (RnD Systems) and VEGF (RnD Systems) were analyzed throughout. All ELISA's were conducted a minimum of 3 times in triplicate. Inhibitors used during this study were added at the following highest concentrations 1 h prior to inflammasome activation: 1 μg/ml of caspase-1 inhibitor VI (Calbiochem), 5 μM cytochalasin D (Sigma Aldrich, Ireland), 10 μM CA-074 Me (cathepsin B inhibitor) (Sigma Aldrich, Ireland), 10 μM DPI (Sigma Aldrich, Ireland).
ARPE-19 cell line (ATCC CRL 2302) were obtained from LGC promochem, THP1 cells and primary isolated human peripheral blood mononuclear […] (PBMCs) were used for in vitro inflammasome activation assays. Cells were cultured at 37° C., 5% CO2, 95% air in a 1:1 mixture of Dulbecco's modified Eagle's medium (DMEM) and Ham's F12 medium with 1.2 g/L sodium bicarbonate, 2.5 mM L-glutamine, 15 mM HEPES, 0.5 mM sodium pyruvate (Sigma Aldrich) with 10% foetal calf serum (FCS). BMDCs and BMDMs were also isolated from WT, NLRP3-/-, TLR-2-/-, C3H/HeN and C3H/HeJ mice on a congenic C57/B16 background. BMDCs and BMDMs were stained with anti-CD11c-APC and anti-CD11b-PeCy7. Cells were gated on live single cells and expression of CD11c and CD11b was assesed by flow cytometry (FIG. 19). Mouse bEnd.3 microvascular endothelial cells were grown on fibronectin (Sigma Aldrich Ireland) coated tissue culture flasks in DMEM containing Glutamax and 10% FCS.

Row | Substance | IL-1β levels [1] | IL-1β induction [2] | IL-1β production ([2]; C3H/HeJ BMDMs (mutant TLR4) primed) | IL-1β production ([2]; Nlrp3-/- BMDMs primed) | IL-1β production ([2]; WT BMDMs primed) | TNF-α ([2]; WT C3H/HeN BMDMs primed)
1 | HSA: Human Serum Albumin, unadducted control | no changes were observed | no IL-1β induction was observed |  |  |  | 
2 | CEP-HSA: Human Serum Albumin adducted with carboxyethyl pyrrole (CEP) | increased | induced IL-1β increases in WT but not TLR2^-/- BMDMs | produced IL-1β | not observed | produced IL-1β | but not CEP primed cells
